## Ab-14 heavy chain CDR variants: yeast mating affinities

Source: Li et al. 2023 (doi:10.1038/s41467-023-39022-2), MIT Lincoln Laboratory and A-Alpha Bio; data file from the FLAb repository.

The target is the same throughout: PDVDLGDISGINAS, from the HR2 region of SARS-CoV-2 spike.

The variants keep the light chain, the linker and the frameworks of Ab-14 (scFv order VH, three GGGGS repeats, VL).
VH: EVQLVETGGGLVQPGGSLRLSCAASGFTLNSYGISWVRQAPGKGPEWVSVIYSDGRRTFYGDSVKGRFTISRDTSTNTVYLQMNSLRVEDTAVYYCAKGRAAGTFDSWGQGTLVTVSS
VL: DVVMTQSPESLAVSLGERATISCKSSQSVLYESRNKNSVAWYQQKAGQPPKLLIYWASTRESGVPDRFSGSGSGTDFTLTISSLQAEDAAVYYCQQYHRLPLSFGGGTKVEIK

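These sequences belong to a second round, designed from the earlier measurements on random variants of the parent. Their group label is 14H_En_Gibbs (En: ensemble of fine-tuned language models; Gibbs: Gibbs sampling). Affinity was read by AlphaSeq, a pooled yeast mating assay with surface-displayed partners. Pairs that bind mate more often; barcode pairs of the diploids are counted by sequencing. Read counts were normalised to the haploid input and turned into Kd by a linear fit to BCL2-family pairs of known affinity, for each replicate. The assay was run in six technical replicates.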

Each variant is given by its three heavy chain CDRs, as the data file delimits them; those of the parent are GFTLNSYGIS, VIYSDGRRTFYGDSVK, GRAAGTFDS.
Affinities are written as log10 Kd with Kd in nM; a lower number is a better binder.
An entry "nd" has no value in the source: the pair was not observed among the diploids in that replicate. This suggests poor binding but is not conclusive.
The authors averaged sequences with at least three values out of six and counted those with two or fewer as poor binders.

| # | CDR-H1 | CDR-H2 | CDR-H3 | log10 Kd (nM) by replicate | control signals |
|---|---|---|---|---|---|
| 1 | GKKLDEYGIS | VIYADGVRSHYAESVK | GLHGTYLVA | nd / nd / nd / nd / nd / nd | 0 of 18 |
| 2 | GRNLDEYGIS | VIYADGLRTSYRDNVK | GQTSGHLDM | 1.80 / nd / nd / nd / nd / nd | 1 of 18 (1.88) |
| 3 | GEDLEEYGIS | VIYADGRRSAYADNVK | GMSGKFGMF | nd / nd / nd / nd / nd / nd | 1 of 18 (1.76) |
| 4 | GFDIEKYGIS | VIYADGQRQAYDSSVK | GEEAGNFHV | nd / nd / nd / nd / nd / nd | 0 of 18 |
| 5 | GFDLGEYGIS | VIYADGRRFSYKDAVK | GVVEGMLDV | nd / nd / nd / nd / nd / nd | 0 of 18 |
| 6 | GFSLDEYGIS | VIYADGNRQEYIDAVK | GNYGGDFIE | 0.23 / 0.05 / nd / -0.25 / 0.48 / nd | 0 of 18 |
| 7 | GNDIEEYGIS | VIYADGQRVNAAQNFK | GKQAGTFNL | nd / nd / nd / nd / nd / nd | 0 of 18 |
| 8 | GDSLDEYGIS | VIYADGQRSYYANSVK | GEHDGLFSQ | nd / nd / nd / nd / nd / nd | 0 of 18 |
| 9 | GDGLKEYGIS | VIYADGMREAYVKDVK | GQTAGTFVL | nd / nd / nd / nd / nd / nd | 0 of 18 |
| 10 | GMDLGEYGIS | VIYADGERASYTNNFK | GVSAGFLTV | 2.99 / nd / nd / nd / nd / nd | 0 of 18 |
| 11 | GMDLEEMGIS | VIYADGLRSAYVDSVK | GGVGDYDFV | nd / nd / nd / nd / nd / nd | 0 of 18 |
| 12 | GFSFQEYGIS | VIYADGKRTFYANTVK | GGKDAAFDI | nd / nd / nd / 2.14 / nd / nd | 0 of 18 |
| 13 | GFSLDEFGIS | VIYADGQRSAYSENVK | GQHGGFTVS | nd / nd / nd / nd / 1.39 / 2.08 | 0 of 18 |
| 14 | GFKLDEYGIS | VIYADGQRAVYTENVK | GHGFNSLVG | 0.50 / 0.85 / 0.64 / 0.80 / 0.67 / 0.41 | 1 of 18 (2.58) |
| 15 | GFNINEYGIS | VIYADGTRTAYANTVK | GKYVGTFVD | nd / nd / nd / nd / nd / nd | 0 of 18 |
| 16 | GDNLEEYGIS | VIYADGKRSVYADSVK | GHISGWFDI | 2.43 / nd / nd / nd / nd / 3.31 | 0 of 18 |
| 17 | GKSLDEYGIS | VIYADGMRTMYTDSVK | GQLDDGMDL | nd / nd / nd / nd / nd / nd | 0 of 18 |
| 18 | GFQLNEYGIS | VIYADGIRSEYADKVK | GGINASFGV | nd / nd / nd / nd / nd / nd | 1 of 18 (2.73) |
| 19 | GKDLNEQGIS | VIYADGTRTAYANTVK | GEIAGAFPI | nd / nd / nd / nd / nd / nd | 0 of 18 |
| 20 | GFSLDEYGIS | VIYADGMRSAYSDKVK | GEVDEYAYV | nd / nd / nd / nd / nd / nd | 0 of 18 |
| 21 | GFDLDEYGIS | VIYADGRRVAILESVK | GKIAGTLDA | -0.25 / -0.05 / -0.45 / -0.56 / -0.32 / -0.19 | 0 of 18 |
| 22 | GFEIQEYGIS | VIYADGRRTAYAESVK | GTLGGTFLT | nd / nd / 0.38 / 0.28 / -0.25 / 1.36 | 0 of 18 |
| 23 | EFEIQDYGIS | VIYADGFRTAYAESVK | GNMGGTFST | 1.72 / 2.08 / 2.75 / 1.85 / nd / nd | 0 of 18 |
| 24 | GMDLNEYGIS | VIYADGQRRAYAANFK | GVNIDGFDQ | nd / nd / nd / nd / nd / nd | 1 of 18 (2.86) |
| 25 | GFDIEEYGIS | VIYADGIRQAYKDKVK | GWDVGTFSV | nd / nd / nd / nd / nd / nd | 0 of 18 |
| 26 | GFDLEEMGVS | VIYHDGIRKAYKQKVK | GQTAGSFDV | nd / nd / nd / nd / nd / nd | 0 of 18 |
| 27 | GVNLDEYGIS | VIYADGVRSHYAESVK | GQHGTFGVA | nd / nd / nd / nd / nd / nd | 0 of 18 |
| 28 | GFDLEEQGIS | VIYADGKRAQYSANVK | GYQTGFIDV | nd / nd / nd / nd / nd / nd | 0 of 18 |
| 29 | GFQIEEYGIS | VIYADGDRKNYDAKVK | GQIAGTFDM | 0.08 / -0.12 / -0.16 / 0.48 / 0.16 / 0.81 | 0 of 18 |
| 30 | GFDLQEYGIS | VIYADGARYAYTNSVK | GTQDGSLIV | nd / nd / nd / nd / nd / nd | 0 of 18 |
| 31 | GFQLDEYGIS | VIYADGKRTAYAQNFK | GNGLVLQEG | nd / nd / nd / nd / nd / nd | 0 of 18 |
| 32 | GFDIQEYGIS | VIYADGQRVAYTNSFK | GTQSGNNIN | nd / nd / nd / nd / nd / nd | 0 of 18 |
| 33 | GFGLMDYGIS | VIYADGMRRSYANSVK | GKHAGFFDF | nd / nd / nd / 2.45 / nd / nd | 0 of 18 |
| 34 | GFNLDEYGIS | VIYADGRRTGYRDKFK | GANNFSVMM | nd / nd / nd / nd / nd / nd | 0 of 18 |
| 35 | GFDLNEYGIS | VIYADGVRTAYQNQVK | GNIDGSFTF | nd / nd / nd / nd / nd / nd | 0 of 18 |
| 36 | GFNLAEYGIS | VIYADGSRVAYADNVK | GLNGKIGDL | nd / nd / nd / nd / nd / nd | 0 of 18 |
| 37 | GFNLNEYGIS | VIYADGLRASYQDSVK | GNARIVGLD | nd / nd / nd / nd / nd / nd | 0 of 18 |
| 38 | GFSLEEYGIS | VIYADGMRTFYTDKVK | GNLDDQEGY | nd / nd / nd / nd / nd / nd | 0 of 18 |
| 39 | GFDIGEYGIS | VIYADGQRTAYKPTVK | GNHTGLVFI | nd / nd / nd / nd / nd / nd | 0 of 18 |

The closing 6 entries, repeated:

| CDR-H1 | CDR-H2 | CDR-H3 | log10 Kd (nM) by replicate | control signals |
|---|---|---|---|---|
| GFNLDEYGIS | VIYADGRRTGYRDKFK | GANNFSVMM | nd / nd / nd / nd / nd / nd | 0 of 18 |
| GFDLNEYGIS | VIYADGVRTAYQNQVK | GNIDGSFTF | nd / nd / nd / nd / nd / nd | 0 of 18 |
| GFNLAEYGIS | VIYADGSRVAYADNVK | GLNGKIGDL | nd / nd / nd / nd / nd / nd | 0 of 18 |
| GFNLNEYGIS | VIYADGLRASYQDSVK | GNARIVGLD | nd / nd / nd / nd / nd / nd | 0 of 18 |
| GFSLEEYGIS | VIYADGMRTFYTDKVK | GNLDDQEGY | nd / nd / nd / nd / nd / nd | 0 of 18 |
| GFDIGEYGIS | VIYADGQRTAYKPTVK | GNHTGLVFI | nd / nd / nd / nd / nd / nd | 0 of 18 |

Of ten entries with the parent sequence, four were seen in most replicates (averages 0.34 to 2.37), three in one and three in none, so single entries are noisy.
As a blank, each scFv also met three strains without target: over all heavy chain designs, 1% of these pairings were detected, typically at 2.08 and seldom below 0.84. The control count says in how many pairings with the empty strains this scFv gave a signal, with their mean in brackets.
The range of this assay differs from that of the first round, and the authors advise against merging the two.